The record followed here is patent US20090012045A1, “Methods of Treating Cell Proliferative Disorders” (RIGEL PHARMACEUTICALS, INC., priority 2007, published 2009).

A value given as a limit tells only on which side of the number the result lay.

This data set concerns NCI-H322M. Particulars: NCI-H322M (Non-Small Cell Lung Cancer).

One may read the GI50 as the concentration that inhibits growth by half. With `COc1cc(Nc2ncc(F)c(Nc3ccc4c(n3)NC(=O)C(C)(C)O4)n2)cc(OC)c1OC.O=S(=O)(O)c1ccccc1` [Compound 1 (besylate salt), N4-(2,2-Dimethyl-3-oxo-4H-5-pyrid[1,4]oxazin-6-yl)-5-fluoro-N2-(3,4,5-trimethoxyphenyl)-2,4-pyrimidinediamine Benzenesulfonic Acid Salt], the GI50 was greater than 100 µM and the TGI is given as greater than 1.00E−4. The CC50 (read-out: LC50) was greater than 100 µM.
